Test results taken from patent publication US12157727B2, “Substituted tetrahydroquinolin compounds as indoleamine 2,3-dioxygenase (IDO) inhibitors” (Merck Sharp & Dohme LLC, priority 2019, dated 2024).

By UniProt entry, the sequences of proteins in these tests, tags left out.
UniProt P14902, whole entry: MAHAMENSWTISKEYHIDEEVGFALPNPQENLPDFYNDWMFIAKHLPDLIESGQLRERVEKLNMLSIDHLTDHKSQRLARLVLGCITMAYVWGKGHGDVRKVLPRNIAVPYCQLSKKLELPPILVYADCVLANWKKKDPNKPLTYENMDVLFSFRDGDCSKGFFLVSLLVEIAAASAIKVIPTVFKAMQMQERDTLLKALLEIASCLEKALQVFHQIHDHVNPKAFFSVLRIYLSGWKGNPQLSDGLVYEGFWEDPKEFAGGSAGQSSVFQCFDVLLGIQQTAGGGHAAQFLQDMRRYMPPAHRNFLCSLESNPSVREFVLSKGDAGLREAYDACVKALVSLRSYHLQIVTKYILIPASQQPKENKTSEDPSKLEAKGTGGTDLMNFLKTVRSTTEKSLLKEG

Each molecule was assayed against IDO1 (Homo sapiens, UniProt P14902) (assay: IDO1 Cellular Assay in HeLa Cells Stimulated with IFNγ). Settings: HeLa cells stimulated with IFNγ 100 ng/mL, 300 uM L-tryptophan, about 48 hours; read-out: IDO1 HeLa Cell Assay, IC50.
Format: cell-based

Row | SMILES | IC50 [nM]
1 | N#Cc1ccc2nc(C3(c4ccc5c(n4)CCCN5C(=O)OC4CC4)CC4(CC4)C3)[nH]c2c1 [Example 40, cyclopropyl 6-(5-(6-cyano-1H-benzo[d]imidazol-2-yl)spiro[2.3]hexan-5-yl)-3,4-dihydro-1,5-naphthyridine-1(2H)-carboxylate] | 2.82
2 | CCOC(=O)N1CCCc2nc(C3(c4nc5cc(C(F)(F)F)cnc5[nH]4)CCC3)ccc21 [Example 19, ethyl 6-{1-[6-(trifluoromethyl)-3H-imidazo[4,5-b]pyridin-2-yl]cyclobutyl}-3,4-dihydro-1,5-naphthyridine-1(2H)-carboxylate] | 1.8
3 | O=C([C@H]1CCCO1)N1CCCc2cc(C3(c4nc5ncc(C(F)(F)F)cc5[nH]4)CCC3)ccc21 [Example 3, [(2R)-oxolan-2-yl][6-{1-[6-(trifluoromethyl)-1H-imidazo[4,5-b]pyridin-2-yl]cyclobutyl}-3,4-dihydroquinolin-1(2H)-yl]methanone] | 2.45
4 | CC(c1ccc2c(n1)CCCN2C(=O)OC1CC1)c1nc2ccc(Cl)cc2[nH]1 (stereo not drawn) [Example 25, cyclopropyl 6-(1-(6-chloro-1H-benzo[d]imidazol-2-yl)ethyl)-3,4-dihydro-1,5-naphthyridine-1(2H)-carboxylate] | 1.15
5 | O=C(C1CCCCO1)N1CCCc2nc(C3(c4nc5ncc(C(F)(F)F)cc5[nH]4)CCC3)ccc21 (stereo not drawn) [Example 14, (tetrahydro-2H-pyran-2-yl)(6-(1-(6-(trifluoromethyl)-1H-imidazo[4,5-b]pyridin-2-yl)cyclobutyl)-3,4-dihydro-1,5-naphthyridin-1(2H),-yl)methanone] | 1.58
6 | Cc1nccc(N2CCCc3nc(C4(c5nc6cc(Cl)ccc6[nH]5)CCC4)ccc32)n1 [Example 34, 6-[1-(6-chloro-1H-benzimidazol-2-yl)cyclobutyl]-1-(2-methylpyrimidin-4-yl)-1,2,3,4-tetrahydro-1,5-naphthyridine] | 2.92
7 | CC(c1ccc2c(c1)CCCN2C(=O)C1CC1)c1nc2ccccc2[nH]1 (stereo not drawn) [Example 9] | 63.4
8 | O=C(OC1CC1)N1CCCc2nc(C3(c4nc5ncc(C(F)(F)F)cc5[nH]4)CCC3)ccc21 [Example 23, cyclopropyl 6-{1-[6-(trifluoromethyl)-1H-imidazo[4,5-b]pyridin-2-yl]cyclobutyl}-3,4-dihydro-1,5-naphthyridine-1(2H)-carboxylate] | 1.35
9 | O=C(OC1CC1)N1CCCc2nc(C3(c4nc5ccc(Cl)cc5[nH]4)CCC3)ccc21 [Example 21, cyclopropyl 6-[1-(6-chloro-1H-benzimidazol-2-yl)cyclobutyl]-3,4-dihydro-1,5-naphthyridine-1(2H)-carboxylate] | 0.693
10 | O=C([C@@H]1CCCCO1)N1CCCc2nc(C3(c4nc5ncc(C(F)(F)F)cc5[nH]4)CCC3)ccc21 [Example 15, (S)-(tetrahydro-2H-pyran-2-yl)(6-(1-(6-(trifluoromethyl)-1H-imidazo[4,5-b]pyridin-2-yl)cyclobutyl)-3,4-dihydro-1,5-naphthyridin-1(2H)-yl)methanone] | 2.14
11 | Cc1nccc(N2CCCc3nc(C4(c5nc6cc(C#N)ccc6[nH]5)CCC4)ccc32)n1 [Example 36, 2-{1-[5-(2-methylpyrimidin-4-yl)-5,6,7,8-tetrahydro-1,5-naphthyridin-2-yl]cyclobutyl}-1H-benzimidazole-6-carbonitrile] | 1.94
12 | O=C(C1CC1)N1CCCc2nc(C3(c4nc5cc(C(F)(F)F)cnc5[nH]4)CCC3)ccc21 [Example 13, Cyclopropyl(6-(1-(6-(trifluoromethyl)-3H-imidazo[4,5-b]pyridin-2-yl)cyclobutyl)-3,4-dihydro-1,5-naphthyridin-1(2H),-yl)methanone] | 1.68
13 | FC(F)(F)c1cnc2[nH]c(C3(c4ccc5c(n4)CCCN5c4ccccn4)CCC3)nc2c1 [Example 31, 1-(pyridin-2-yl)-6-{1-[6-(trifluoromethyl)-3H-imidazo[4,5-b]pyridin-2-yl]cyclobutyl}-1,2,3,4-tetrahydro-1,5-naphthyridine] | 3.33

Results, then the molecule that gave them:

Row | IC50 [nM] | SMILES
14 | 4.81 | Cc1nccc(N2CCCc3nc(C4(c5nc6ccc(C#N)cc6[nH]5)CC4)ccc32)n1 [Example 37, 2-(1-(5-(2-methylpyrimidin-4-yl)-5,6,7,8-tetrahydro-1,5-naphthyridin-2-yl)cyclopropyl)-1H-benzo[d]imidazole-6-carbonitrile]
15 | 3.87 | O=C(C1CC1)N1CCCc2cc(C3(c4nc5ncc(C(F)(F)F)cc5[nH]4)CCC3)ccc21 [Example 1, Cyclopropyl(6-(1-(6-(trifluoromethyl)-1H-imidazo[4,5-b]pyridin-2-yl)cyclobutyl)-3A-dihydroquinolin-1(2H)-yl)methanone]
16 | 4.25 | N#Cc1ccc2nc(C3(c4ccc5c(n4)CCCN5C(=O)OC4CC4)CCC3)[nH]c2c1 [Example 20, cyclopropyl 6-[1-(6-cyano-1H-benzimidazol-2-yl)cyclobutyl]-3,4-dihydro-1,5-naphthyridine-1(2H)-carboxylate]
17 | 12.5 | FC(F)(F)c1cnc2nc(C3(c4ccc5c(n4)CCCN5c4ccnc(C(F)(F)F)n4)CC3)[nH]c2c1 [Example 38, 6-{1-[6-(trifluoromethyl)-3H-imidazo[4,5-b]pyridin-2-yl]cyclopropyl}-1-[2-(trifluoromethyl)pyrimidin-4-yl]-1,2,3,4-tetrahydro-1,5-naphthyridine]
18 | 4.46 | C[C@H](c1ccc2c(c1)CCCN2C(=O)OC1CC1)c1nc2ncc(C#N)cc2[nH]1 [Example 8, cyclopropyl (R)-6-(1-(6-cyano-1H-imidazo[4,5-b]pyridin-2-yl)ethyl)-3,4-dihydroquinoline-1(2H)-carboxylate]
19 | 2.48 | CC(c1ccc2c(n1)CCCN2C(=O)OC1CC1)c1nc2ccc(C#N)cc2[nH]1 (stereo not drawn) [Example 29, cyclopropyl 6-(1-(6-cyano-1H-benzo[d]imidazol-2-yl)ethyl)-3,4-dihydro-1,5-naphthyridine-1(2H)-carboxylate]
20 | 15.3 | C[C@@H](c1ccc2c(c1)CCCN2C(=O)OC1CC1)c1nc2ncc(C#N)cc2[nH]1 [Example 7, cyclopropyl (S)-6-(1-(6-cyano-1H-imidazo[4,5-b]pyridin-2-yl)ethyl)-3,4-dihydroquinoline-1(2H)-carboxylate]
21 | 2.92 | O=C(C1CC1)N1CCCc2cc(C3(c4nc5ccc(Cl)cc5[nH]4)CCC3)ccc21 [Example 2, {6-[1-(6-chloro-1H-benzimidazol-2-yl)cyclobutyl]-3,4-dihydroquinolin-1(2H)-yl}(cyclopropyl) methanone]
22 | 4.23 | N#Cc1cnc2nc(C3(c4ccc5c(c4)CCCN5C(=O)OC4CC4)CCC3)[nH]c2c1 [Example 10, cyclopropyl 6-(1-(6-cyano-1H-imidazo[4,5-b]pyridin-2-yl)cyclobutyl)-3,4-dihydroquinoline-1(2H)-carboxylate]
23 | 4.47 | CC(c1ccc2c(n1)CCCN2C(=O)OC1CC1)c1nc2ncc(C#N)cc2[nH]1 (stereo not drawn) [Example 28, cyclopropyl 6-(1-(6-cyano-1H-imidazo[4,5-b]pyridin-2-yl)ethyl)-3,4-dihydro-1,5-naphthyridine-1(2H)-carboxylate]
24 | 4.88 | FC(F)(F)c1cnc2nc(C3(c4ccc5c(c4)CCCN5c4ccccn4)CCC3)[nH]c2c1 [Example 11, 1-(pyridin-2-yl)-6-(1-(6-(trifluoromethyl)-1H-imidazo[4,5-b]pyridin-2-yl)cyclobutyl)-1,2,3,4-tetrahydroquinoline]
